Literature values, collected in patent US20230027739A1, “ANTIGEN-BINDING AND ANTIGEN D[…]” (Entrada Therapeutics, Inc., priority 2021, published 2023).

Conditions: theoretical values as reported by Tien, et al.

## O=C(O)[C@@H]1CCCN1 [Proline]
  Amino Acid SASA Values, Theoretical: 159.0 Å^2
